# This is a selection; strong and weak results do not stand in their true shares. Active and inactive are the calls of the source. No stated cut-off is given here; in the data, active means potentiation above about 50%; inconclusive means mostly about 30% to 49%; inactive means weaker than that.
# By UniProt entry, the sequences of proteins in these tests, tags left out.
# UniProt P14416, whole entry: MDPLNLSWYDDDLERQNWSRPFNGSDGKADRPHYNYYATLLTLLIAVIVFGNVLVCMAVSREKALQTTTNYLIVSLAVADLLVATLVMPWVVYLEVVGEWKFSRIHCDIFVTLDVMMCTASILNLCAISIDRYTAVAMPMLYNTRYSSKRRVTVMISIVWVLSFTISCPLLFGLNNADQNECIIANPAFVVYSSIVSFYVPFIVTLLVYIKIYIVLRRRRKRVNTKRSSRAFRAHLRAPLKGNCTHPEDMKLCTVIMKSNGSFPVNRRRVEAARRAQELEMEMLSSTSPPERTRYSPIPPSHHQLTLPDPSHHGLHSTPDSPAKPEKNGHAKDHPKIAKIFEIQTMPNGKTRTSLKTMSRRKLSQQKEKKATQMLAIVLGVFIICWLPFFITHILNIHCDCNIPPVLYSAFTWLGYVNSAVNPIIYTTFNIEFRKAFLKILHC
# Target: D(2) dopamine receptor (Homo sapiens) (UniProt P14416)
# Test: Beta-Arrestin HTS for Positive Allosteric Modulators of the Human D2 Dopamine Receptor: Potentiators
# Conditions: DiscoveRx D2 beta-arrestin cells, luminescence, 90 min; active compounds read high; 100% = 57 uM dopamine signal
# Outline: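 PathHunter beta-arrestin assay in DiscoveRx D2 cells. Compounds were added with an EC20 of dopamine (50 nM final) for 90 min at 37 deg C. Luminescence was read 1 h after detection reagent, with 57 uM dopamine as the EC100 control.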
row,Compound,potentiation
1,CC(C)(C)C(=O)NC(Sc1ncccn1)C(Cl)(Cl)Cl (stereo unspecified),inactive: -12.5%
2,COc1ccccc1CNC(=O)COC(=O)C(O)(c1ccccc1)c1ccccc1,inactive: -19.1%
3,Cc1ccc(S(=O)(=O)N(CCCN)CCCc2c(C)nc(N)[nH]c2=O)cc1.O=[N+]([O-])c1cc([N+](=O)[O-])c(O)c([N+](=O)[O-])c1,inactive: -22.6%
4,CN(C(=O)Cc1ccc(Cl)c(Cl)c1)[C@@H]1CCCC[C@H]1N1CCCC1,inactive: -11.7%
5,CC(C)/C=N\N=C(\N)N[N+](=O)[O-],inactive: -3.09%
6,Cc1nc2ccc3ccccc3c2s1.O=[N+]([O-])c1cc([N+](=O)[O-])c(O)c([N+](=O)[O-])c1,inactive: -29.2%
7,CC1(CBr)Cn2c(nc3ccccc3c2=O)S1 (stereo unspecified),inactive: 4.01%
8,O=C(OC1CN2CCC1CC2)c1ccc(Cl)cc1 (stereo unspecified),inactive: -3.12%
9,O=[As](O)(O)c1cccnc1,inactive: -5.94%
10,COc1cc(C(=O)NCC2(N3CCOCC3)CCCCC2)cc(Cl)c1OC(C)C,inactive: -16.3%
11,CS(=O)(=O)c1ccc(Cl)c(NC(=O)COC(=O)C(O)(c2ccccc2)c2ccccc2)c1,inactive: -31.5%
12,COc1ccccc1OP(C)(=O)Nc1cccc(Br)c1 (stereo unspecified),inactive: -0.496%
13,Cc1cccc(OCC(=O)OC2CN3CCC2CC3)c1 (stereo unspecified),inactive: 4.89%
14,O=[As](O)(c1cccc(O)c1)c1cccc(O)c1,inactive: 1.22%
15,Cc1cc(C)cc(OP(C)(=O)Nc2ccc(C)cc2C)c1 (stereo unspecified),inactive: -9.07%
16,CCOC(=O)c1ccc(NP(C)(=O)Oc2cc(C)cc(C)c2)cc1 (stereo unspecified),inactive: -23%
17,Cc1cc(C)cc(OP(C)(=O)Nc2ccccn2)c1 (stereo unspecified),inactive: 12.7%
18,CP(=O)(Nc1cccc(Br)c1)Oc1ccccc1 (stereo unspecified),inactive: -4.14%

row,Compound,potentiation
1,Nc1cccc2c([As](=O)(O)O)cccc12,inactive: 10.8%
2,Cc1ccc(NCCc2c([N+](=O)[O-])cc([N+](=O)[O-])cc2[N+](=O)[O-])cc1,inactive: 27%
3,Cc1ccc(C)c(NP(C)(=O)Oc2ccccc2)c1 (stereo unspecified),inactive: -10.9%
4,CCOP(=O)(Nc1cccc2ccccc12)OCC,inactive: -4.42%
5,CCOP1(=S)c2c(C)nn(CCC#N)c2N=C(c2ccccc2F)N1C (stereo unspecified),inactive: -10.4%
6,O=P(Nc1nccs1)(Oc1ccccc1)Oc1ccccc1,inactive: -9.71%
7,O=P(Nc1nccs1)(c1ccccc1)c1nc2ccccc2s1 (stereo unspecified),inactive: -15.4%
8,CS(=O)(=O)c1cc([N+](=O)[O-])c2no[n+]([O-])c2c1,inactive: -2.8%
9,O=C(O)COc1ccc([As](=O)(O)O)cc1[N+](=O)[O-],inactive: 2.88%
10,Nc1ccccc1[As](=O)(O)c1ccccc1,inactive: 0.288%
11,NC(=O)Nc1ccc([As](=O)(O)O)cc1,inactive: -5.7%
12,N#CCCN(C(=O)COC(=O)C(O)(c1ccccc1)c1ccccc1)c1ccc(F)cc1,inactive: -21.4%
13,CN(C(=O)Cc1ccccc1)[C@@H]1CC[C@]2(CCCO2)C[C@H]1N1CCCC1,inactive: 4.23%
14,CCOP1(=S)c2c(C)nn(CCC#N)c2N=C(c2ccc(F)cc2)N1C (stereo unspecified),inactive: -9.38%
15,O=[N+]([O-])c1ccc2c(c1)nnn2O,inactive: -9.66%
16,CN(C)C(=O)c1cc([N+](=O)[O-])cc2c1-c1c(cc([N+](=O)[O-])cc1[N+](=O)[O-])C2=O,inactive: 24.8%
17,CC1=NCCc2c1[nH]c1ccccc21.O=[N+]([O-])c1cc([N+](=O)[O-])c(O)c([N+](=O)[O-])c1,inactive: -1.37%
18,CN(C(=O)Cc1ccc(Cl)c(Cl)c1)[C@H]1CC[C@@]2(CCCO2)C[C@@H]1N1CCCC1,inactive: 0.0959%
